Experimental data reported in PubChem BioAssay AID743445 (Broad Institute, 2014).
This is a selection; strong and weak results do not stand in their true shares. Activity calls are given as the source filed them. Rule as the data show it: active = inhibition above about 50%; inactive = the rest.

Protein sequences, listed by entry. Tags and fused reporters are not part of them. Lines headed by an entry give the natural chain unless they say otherwise; changes in a name come on top.
UniProt O96028: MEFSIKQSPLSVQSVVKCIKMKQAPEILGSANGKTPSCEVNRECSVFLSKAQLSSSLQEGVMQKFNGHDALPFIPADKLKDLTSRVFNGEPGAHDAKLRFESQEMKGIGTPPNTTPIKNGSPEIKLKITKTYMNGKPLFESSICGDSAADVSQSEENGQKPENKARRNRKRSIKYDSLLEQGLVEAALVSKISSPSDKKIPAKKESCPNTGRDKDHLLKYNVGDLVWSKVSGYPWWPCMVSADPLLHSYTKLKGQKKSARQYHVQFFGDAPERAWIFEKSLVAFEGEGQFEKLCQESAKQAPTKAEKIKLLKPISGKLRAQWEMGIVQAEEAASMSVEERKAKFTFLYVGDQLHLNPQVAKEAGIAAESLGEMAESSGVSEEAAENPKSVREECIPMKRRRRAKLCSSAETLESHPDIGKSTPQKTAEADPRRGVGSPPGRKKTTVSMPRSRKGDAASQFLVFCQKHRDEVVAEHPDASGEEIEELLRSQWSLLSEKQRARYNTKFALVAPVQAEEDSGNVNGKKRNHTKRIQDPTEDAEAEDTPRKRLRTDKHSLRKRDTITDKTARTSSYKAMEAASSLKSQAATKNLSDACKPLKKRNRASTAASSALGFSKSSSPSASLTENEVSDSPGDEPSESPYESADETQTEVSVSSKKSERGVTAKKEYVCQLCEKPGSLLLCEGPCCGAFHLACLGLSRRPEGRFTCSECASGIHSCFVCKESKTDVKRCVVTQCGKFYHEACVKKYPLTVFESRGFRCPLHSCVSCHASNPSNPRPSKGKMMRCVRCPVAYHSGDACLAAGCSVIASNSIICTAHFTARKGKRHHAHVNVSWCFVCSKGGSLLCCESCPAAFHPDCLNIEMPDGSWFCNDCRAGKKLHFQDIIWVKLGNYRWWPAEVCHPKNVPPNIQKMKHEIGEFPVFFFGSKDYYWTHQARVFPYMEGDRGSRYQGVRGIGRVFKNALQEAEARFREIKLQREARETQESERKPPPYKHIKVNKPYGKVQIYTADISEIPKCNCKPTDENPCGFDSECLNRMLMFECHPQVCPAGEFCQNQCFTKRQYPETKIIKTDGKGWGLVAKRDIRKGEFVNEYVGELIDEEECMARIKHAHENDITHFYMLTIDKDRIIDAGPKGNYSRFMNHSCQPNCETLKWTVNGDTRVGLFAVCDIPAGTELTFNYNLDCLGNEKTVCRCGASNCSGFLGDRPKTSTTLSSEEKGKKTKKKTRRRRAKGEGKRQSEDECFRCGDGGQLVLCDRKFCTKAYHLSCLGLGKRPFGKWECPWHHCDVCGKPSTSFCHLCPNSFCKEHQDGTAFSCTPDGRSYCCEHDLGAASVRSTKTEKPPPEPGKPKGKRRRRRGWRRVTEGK

Target: Histone-lysine N-methyltransferase NSD2 (Homo sapiens) (UniProt O96028)
Experiment: NSD2 histone methyltransferase inhibitors, primary screen, biochemical, AlphaScreen, single concentration, set 2 (AID 743445)
Details: NSD2 peptide methylation, 120 min, at 12.5 µM, stronger effect = higher value

SMILES | inhibition
O=C(O)C(=O)c1ccc(N(CCCl)CCCl)cc1 | inactive: -0.154%
COP1(=S)c2c(C)nn(CCC#N)c2N=C(c2ccc(F)cc2)N1C (stereo not given) | inactive: 1.9%
COC(=O)C1(C)COP(=O)(N2CCCC2)OC1 (stereo not given) | inactive: 3.06%
O=[N+]([O-])c1ccc(Nc2ccc(Oc3ccc([N+](=O)[O-])cc3[N+](=O)[O-])cc2)c([N+](=O)[O-])c1 | inactive: 3.92%
O=P(Nc1ccccn1)(c1cccc2ccccc12)c1cccc2ccccc12 | inactive: 0.579%
Cc1cc(SC(NC=O)C(Cl)(Cl)Cl)ncn1 (stereo not given) | inactive: 0.126%
CCOC(=O)Nc1cccc([As](=O)(O)O)c1 | inactive: -1.95%
CCCCOc1ccc(C(=O)NCC2(N3CCCCC3)CCCCC2)cc1OC | inactive: 1.52%
COP(=O)(OC)N1CC1c1ccccc1 (stereo not given) | inactive: -6.15%
CC1CCNP(=O)(N(CCCl)CCCl)O1 (stereo not given) | inactive: -8.75%
CCOC(=O)Nc1ccc([As](=O)(O)O)c(O)c1 | inactive: -3.15%
O=C(O)C(O)c1ccc(N(CCCl)CCCl)cc1 (stereo not given) | inactive: 0.662%
Cc1ccc(OCC(=O)OC2CN3CCC2CC3)cc1 (stereo not given) | inactive: -2.46%
O=[As](O)(c1cccs1)c1cccs1 | inactive: 1.38%
O=P1(Nc2ccc(Br)cn2)COc2ccccc2OC1 | inactive: 0.294%
NS(=O)(=O)c1cccc(NC(=O)COC(=O)C(O)(c2ccccc2)c2ccccc2)c1 | inactive: -1.09%
Nc1cccc([As](=O)(O)c2ccccc2)c1 | inactive: 1.56%
O=P1(Nc2ncccn2)COc2ccccc2OC1 | inactive: -12%
Cc1ccc(S(=O)(=O)N(CCCN)CCCc2c(C)nc(N)[nH]c2=O)cc1 | inactive: 3.76%
O=C(/C=C/c1ccccc1)OC1CN2CCC1CC2 (stereo not given) | inactive: -1.35%
CCCC1OP(=O)(Nc2ccccc2)OCC1CC (stereo not given) | inactive: 0.949%
CN(C)C1(CNC(=O)c2ccc(S(C)(=O)=O)cc2)CCCCC1 | inactive: -5.15%
Cc1nn(-c2ccccc2)c2c1P(=O)(N1CCOCC1)N(C)C(c1ccccc1)=N2 (stereo not given) | inactive: -0.315%
CC1CCC(C(C)C)C(OP(=O)(Nc2ccccn2)c2ccccc2)C1 (stereo not given) | inactive: 3.89%
Cc1ccc(C(=O)OC2CN3CCC2CC3)cc1 (stereo not given) | inactive: -0.746%

SMILES | inhibition
CC1(CBr)Cn2c(nc3ccccc3c2=O)S1 (stereo not given) | inactive: -4.35%
CC(C)/C=N\N=C(\N)N[N+](=O)[O-] | inactive: -2.38%
COc1ccccc1CNC(=O)COC(=O)C(O)(c1ccccc1)c1ccccc1 | inactive: -0.452%
O=P1(N(CCCl)CCCl)NCCC(C(F)(F)F)O1 (stereo not given) | inactive: 0.799%
Clc1n[nH]nc1-c1nn[nH][15n]1 | inactive: 2.44%
CCOP(=O)(Nc1ccc(C)cn1)OCC | inactive: -4.46%
O=P1(Nc2ccccn2)COc2ccccc2OC1 | inactive: -0.602%
CCC1=CC2Cc3nc4ccc(Cl)cc4c(N)c3C(C1)C2 (stereo not given) | inactive: 13.3%
CCOP(=O)(NC(=NC(C)c1ccccc1)NC(C)c1ccccc1)OCC (stereo not given) | inactive: -6.49%
COc1cc(C2NCCC3(OCCO3)C2(C)C)cc(OC)c1OC (stereo not given) | inactive: 0.403%
CCOP(=O)(Nc1cccc2ccccc12)OCC | inactive: -0.359%
CCCOP(=S)(Nc1nc(N)cc(=O)[nH]1)OCCC | inactive: 0.828%
Cc1ccc(NCCc2c([N+](=O)[O-])cc([N+](=O)[O-])cc2[N+](=O)[O-])cc1 | inactive: 0.657%
Nc1cccc2c([As](=O)(O)O)cccc12 | inactive: 11.8%
Cc1cccc(OCC(=O)OC2CN3CCC2CC3)c1 (stereo not given) | inactive: -1.69%
O=[As](O)(O)c1cccnc1 | inactive: 3.05%
COc1cc(C(=O)NCC2(N3CCOCC3)CCCCC2)cc(Cl)c1OC(C)C | inactive: -2.91%
CS(=O)(=O)c1ccc(Cl)c(NC(=O)COC(=O)C(O)(c2ccccc2)c2ccccc2)c1 | inactive: 3.73%
O=C(OC1CN2CCC1CC2)c1ccc(Cl)cc1 (stereo not given) | inactive: 29.2%
O=[N+]([O-])c1ccc2c(c1)nnn2O | inactive: -1.2%
N#CCCN(C(=O)COC(=O)C(O)(c1ccccc1)c1ccccc1)c1ccc(F)cc1 | inactive: 1.39%
CCOP1(=S)c2c(C)nn(CCC#N)c2N=C(c2ccc(F)cc2)N1C (stereo not given) | inactive: -0.552%
O=C(O)COc1ccc([As](=O)(O)O)cc1[N+](=O)[O-] | inactive: -1.31%
CCOP1(=S)c2c(C)nn(CCC#N)c2N=C(c2ccccc2F)N1C (stereo not given) | inactive: 1.44%
O=P(Nc1nccs1)(Oc1ccccc1)Oc1ccccc1 | inactive: 3.24%
